# According to US20240239772A1, “PROTEASE INHIBITORS AND METHODS OF USE” (The Cleveland Clinic Foundation, priority 2021, published 2024):
# Test system: SARS-CoV-2
# Assay type: cell-based
# Conditions: SARS-CoV-2, Vero E6 ACE2 cells
compound,measurement,value
"O=C(Cn1nnc2ccccc21)N(Cc1cccc(Cl)c1)c1ccc(-c2c[nH]cn2)cc1 [Compound 41, N-(4-(1H-Imidazol-4-yl)phenyl)-2-(1H-benzo[d][1,2,3]triazol-1-yl)-N-(3-chlorobenzyl)acetamide]",antiviral efficacy compared with remdesivir,"comparable to that of the polymerase inhibitor, remdesivir"
